Laboratory results from ChEMBL document CHEMBL1149187, “Design, synthesis, and biological activity of 4-[(4-cyano-2-arylbenzyloxy)-(3-methyl-3H-imidazol-4-yl)methyl]benzonitriles as potent and selective farnesyltransferase inhibitors” (J Med Chem, 2004).

Target: Protein farnesyltransferase (Homo sapiens, UniProt P49354+P49356)
Assay: Inhibition of Farnesyltransferase
Type: protein-complex assay

NC(=O)N1CCC(CC(=O)N2CCC([C@H]3c4ncc(Br)cc4CCc4cc(Cl)cc(Br)c43)CC2)CC1 [LONAFARNIB]
IC50: 2 nM
